Reference: patent publication US8536113B2, “EGFR binding peptides and uses thereof” (Janssen Biotech, Inc., priority 2006, dated 2013)

Tested on: A431 cells
Experiment: FACS binding of P190-MMB constructs and cetuximab
Format: cell-based, human
Excerpt: In contrast, 190-MMB as the 4316 construct, binds EGFR and the presence of excess EGF promotes its binding.

In the case of cetuximab [reference compound], the “binding to A431” value was “binds EGFR+ A431”.
